These results are taken from patent US11274108B2 (priority 2015, dated 2022).

Amino acid sequences for entries named in this document (tags omitted). Residues count along the entry.
UniProt P07333, 20-972: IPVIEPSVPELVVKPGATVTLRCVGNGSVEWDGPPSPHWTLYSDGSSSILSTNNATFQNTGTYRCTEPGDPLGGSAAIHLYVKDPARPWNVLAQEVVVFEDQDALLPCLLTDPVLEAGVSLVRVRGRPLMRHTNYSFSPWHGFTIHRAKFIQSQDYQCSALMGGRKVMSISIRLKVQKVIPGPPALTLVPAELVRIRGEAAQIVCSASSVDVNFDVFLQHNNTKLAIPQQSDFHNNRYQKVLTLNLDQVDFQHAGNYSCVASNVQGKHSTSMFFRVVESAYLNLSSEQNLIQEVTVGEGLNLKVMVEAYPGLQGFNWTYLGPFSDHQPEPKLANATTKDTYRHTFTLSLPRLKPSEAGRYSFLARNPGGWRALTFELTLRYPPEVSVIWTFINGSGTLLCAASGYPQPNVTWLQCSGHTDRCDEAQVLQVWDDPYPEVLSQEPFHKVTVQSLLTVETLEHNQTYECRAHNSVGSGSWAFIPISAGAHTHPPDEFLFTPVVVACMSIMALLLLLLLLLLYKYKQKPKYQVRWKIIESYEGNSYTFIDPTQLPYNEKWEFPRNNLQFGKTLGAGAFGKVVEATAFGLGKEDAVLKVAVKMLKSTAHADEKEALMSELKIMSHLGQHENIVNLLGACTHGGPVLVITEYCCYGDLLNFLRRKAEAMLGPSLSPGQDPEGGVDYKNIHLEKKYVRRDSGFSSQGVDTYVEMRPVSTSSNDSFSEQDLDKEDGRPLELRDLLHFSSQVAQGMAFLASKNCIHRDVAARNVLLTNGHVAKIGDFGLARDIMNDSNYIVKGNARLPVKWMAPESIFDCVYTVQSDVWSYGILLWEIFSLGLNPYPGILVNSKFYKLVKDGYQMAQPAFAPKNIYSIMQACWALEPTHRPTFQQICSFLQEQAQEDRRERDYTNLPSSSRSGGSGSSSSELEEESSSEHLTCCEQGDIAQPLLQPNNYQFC

Each structure is given as a SMILES string. Where only a bound is given, the exact number is not on record here.

One experiment concerns TGF-β1. As to conditions: mouse, in vivo.
Experiment [1] concerns TNFα, CSF-1R, Arg1, IL-6, Ym1 and MCP-1 gene expression in spinal cord. As to conditions: mouse, in vivo.
For experiment [2], the system named is Chitinase 3-Like 3/ECF-L (YM-1). As to conditions: mouse, in vivo.
Another experiment concerns MCP-1. To be noted: mouse, in vivo.
Another experiment relates to IP-10. To be noted: mouse, in vivo.
In another experiment the test system is IL-1β. As to conditions: mouse, in vivo.
Another experiment has as its system MCSF. As to conditions: mouse, in vivo.
For the next experiment, the system named is TNF-α. To be noted: mouse, in vivo.
Another experiment relates to IL-10. As to conditions: mouse, in vivo.
The next experiment has as its system IL-6. As to conditions: mouse, in vivo.
In experiment [3] the test system is MOG-Induced NOD Progressive EAE Model. To be noted: mouse, in vivo.
The subject of a further experiment is IL-12p40. As to conditions: mouse, in vivo.
Another experiment has as its system BDNF. To be noted: mouse, in vivo.
Another experiment has as its system RANTES. As to conditions: mouse, in vivo.
Another experiment has as its target human cFMS (Homo sapiens (Human), UniProt P07333). The experiment is described as follows: cell-based.

As for `COc1ccc(C2COc3cc(Cn4cnc5cc(C#CC(C)(C)N)cnc54)ccc3O2)cn1` (centres unmarked) [Genz-882706, 4-(3-((2-(6-methoxypyridin-3-yl)-2,3-dihydrobenzo[b][1,4]dioxin-6-yl)methyl)-3H-imidazo[4,5-b]pyridin-6-yl)-2-methylbut-3-yn-2-amine], in the experiment on TGF-β1, the “levels of TGF-β” value is “trend towards decreased levels”. Also, in experiment [1], the “gene expression of Arg1 in spinal tissue” value is “trend towards decreased gene expression”, the “gene expression of IL-6 in spinal tissue” value is on record as “trend towards decreased gene expression”, the “gene expression of MCP-1 in spinal tissue” value is reported as “trend towards decreased gene expression” and the “gene expression of TNFα in spinal tissue” value is “trend towards decreased gene expression”. For the same molecule, in [1], the “gene expression of Ym-1 in spinal tissue” value is “trend towards up-regulation”. Moreover, the Ym-1 levels entry in experiment [2] was “vehicle control had significantly increased Ym-1 levels when compared to either the naïve control or Genz-882706 treated groups”. Moreover, the “MCP-1 levels in spinal cord homogenates” value with MCP-1 is reported as “significant decreases”. In the experiment on IP-10, the “IP-10 levels in spinal cord homogenates” value was “significant decreases”. In addition, in the experiment on IL-1β, the “IL-1β levels in spinal cord homogenates” value is reported as “significant decreases”. Moreover, the MCSF levels entry in the experiment on MCSF is recorded as “no effects”. For the same molecule, in the experiment with TNF-α, the “TNF-α levels in the spinal cord” value is on record as “significant increase”. Moreover, the IL-10 levels entry in the experiment with IL-10 is “trend towards increased IL-10 levels”. For the same molecule, in the experiment with IL-6, the “IL-6 levels in spinal cord homogenates” value is reported as “significant decreases”. For the same molecule, in experiment [3], the “reduction in axonal damage” value was above 40% and the reduction in demyelination was above 40%. Moreover, the IL-12p40 levels result with IL-12p40 is “no effects”. In addition, the BDNF levels entry in the experiment with BDNF is given as “not affected”. Further, the RANTES levels entry in the experiment with RANTES is “no effects”.
What is called IC50 is the point on the concentration scale where inhibition reaches its midpoint. Low values mean higher potency, high ones lower potency. `COc1ccc(C2CSc3cc(Cn4cnc5cc(C#CC(C)(C)N)cnc54)ccc3O2)cn1` (centres unmarked) [Example 1-251, 4-(3-((2-(6-methoxypyridin-3-yl)-2,3-dihydrobenzo[b][1,4]oxathiin-6-yl)methyl)-3H-imidazo[4,5-b]pyridin-6-yl)-2-methylbut-3-yn-2-amine] gave an IC50 against human cFMS of 300 nM.
